# Results as given in publication PMC3990705, “A p38 Substrate-Specific MK2-EGFP Translocation Assay for Identification and Validation of New p38 Inhibitors in Living Cells: A Comprising Alternative for Acquisition of Cellular p38 Inhibition Data” (PLoS ONE, 2014).
# Protein sequences, listed by entry. Tags and fused reporters are not part of them.
# UniProt Q16539, whole entry: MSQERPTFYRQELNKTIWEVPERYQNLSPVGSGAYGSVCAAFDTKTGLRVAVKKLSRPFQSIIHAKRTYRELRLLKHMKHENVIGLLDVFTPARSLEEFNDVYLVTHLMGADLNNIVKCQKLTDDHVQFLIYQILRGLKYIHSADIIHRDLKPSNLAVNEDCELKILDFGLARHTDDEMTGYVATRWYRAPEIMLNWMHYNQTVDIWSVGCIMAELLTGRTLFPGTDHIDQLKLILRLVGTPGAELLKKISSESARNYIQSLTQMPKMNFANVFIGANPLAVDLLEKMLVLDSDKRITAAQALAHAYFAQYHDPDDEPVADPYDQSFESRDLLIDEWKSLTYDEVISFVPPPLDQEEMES
# Tests used:
# p38α MAPK = p38α MAPK (Homo sapiens, UniProt Q16539); assay: Biochemical p38 MAPK activity assay (BAA), ELISA of ATF-2 phosphorylation; details: read-out: BAA p38 IC50 ± SD; inhibition of phosphorylation of ATF2, N = 3
# [1] = tested on: TNFα release in human whole blood; assay: Whole blood assay (WBA), TNFα release after LPS stimulation; details: read-out: WBA TNFα IC50 ± SD, N = 3
# p38 MAPK = p38 MAPK (Homo sapiens, UniProt Q16539); assay: MK2-EGFP translocation assay (High Content Analysis); type: cell-based; details: 15 nM compound, activated U2OS MK2-EGFP cells, N = 3
compound,measurement,setting,value
CC(C)C(C)Nc1cc(-c2[nH]c(SCCO)nc2-c2ccc(F)cc2)ccn1 (stereo not drawn),pIC50,p38α MAPK,7.93
same,pIC50,[1],7.68
same,nuc/cyt ratio at 15 nM ± SD,p38 MAPK,"0,982±0,0335"

# pIC50: −log10 of the molar value.
